Consider one compound from ChEMBL document CHEMBL2176970 (J Med Chem, 2012).

Sequences of proteins named here, by UniProt entry; tags and fusion partners are left off. A change or cut given only in a name is not applied to a line headed by its entry.
UniProt Q9Y243: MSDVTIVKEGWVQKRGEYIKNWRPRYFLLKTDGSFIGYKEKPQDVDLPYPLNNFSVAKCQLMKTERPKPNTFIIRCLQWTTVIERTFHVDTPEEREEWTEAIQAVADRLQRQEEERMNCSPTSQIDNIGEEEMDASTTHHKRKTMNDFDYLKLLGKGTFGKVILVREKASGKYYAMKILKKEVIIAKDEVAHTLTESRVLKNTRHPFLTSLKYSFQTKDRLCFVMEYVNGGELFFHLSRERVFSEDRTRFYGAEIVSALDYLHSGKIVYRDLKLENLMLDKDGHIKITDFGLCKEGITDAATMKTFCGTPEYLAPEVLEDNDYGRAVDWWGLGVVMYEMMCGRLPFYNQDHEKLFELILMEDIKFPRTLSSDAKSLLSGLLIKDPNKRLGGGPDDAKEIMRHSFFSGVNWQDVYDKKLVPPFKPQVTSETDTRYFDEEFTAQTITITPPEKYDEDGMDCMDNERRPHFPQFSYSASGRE

Molecules are shown by their SMILES.

In the assay the target is RAC-gamma serine/threonine-protein kinase (Homo sapiens, UniProt Q9Y243). The assay is described as follows: Inhibition of Akt3 (1 to 479) expressed in Sf9 cells using biotin-GRPRTSSFAEG as substrate after 20 mins by Alpha-screen assay.

`Nc1ncccc1-c1nc2cc(-c3cccnc3)cnc2n1-c1ccc(CNC(=O)c2cccc(F)c2)cc1` showed an IC50 of 0.4 µM.
